Common to all, as to assay: ITC
A general note: In ITC the heat of successive injections is recorded.

The target in test [1] is Nup153-ZnF2D8Q (Rattus norvegicus).
Test [2] deals with Nup153-ZnF1Q8D (Rattus norvegicus).
Test [3] has as its target Nup153-ZnF34 (tandem pair of ZnF3 and ZnF4) (Rattus norvegicus) (UniProt P49791).
Test [4] deals with Nup153-ZnF1 (Rattus norvegicus) (UniProt P49791).
Test [5] deals with Nup153-ZnF2 (Rattus norvegicus) (UniProt P49791).
The target of test [6] is Nup153-ZnF4D8Q (Rattus norvegicus).
The target in test [7] is Nup153ZnF1234 (entire ZnF region of Nup153) (Rattus norvegicus) (UniProt P49791).
In test [8] the target is Nup153-ZnF4 (Rattus norvegicus) (UniProt P49791).
Test [9] concerns the target Nup153-ZnF3 (Rattus norvegicus) (UniProt P49791).
Test [10] has as its target Nup358-ZnF12 (Homo sapiens) (UniProt P49792).
Test [11] concerns the target Nup153-ZnF12 (tandem pair of ZnF1 and ZnF2) (Rattus norvegicus) (UniProt P49791).

The Kd is the equilibrium constant for the complex coming apart. A higher Kd goes with lower affinity. What is called stoichiometry N is a count of units in the complex or per binding partner. In the case of “RanGDP (wild-type Ran, GDP-bound) (from UniProt P62828 1-216) (natural protein)”, in [1], the Kd came out at 4 µM and the stoichiometry N was found to be 1. In test [2], this substance displayed a dissociation constant Kd of 8 µM, a dH of -2.68 kcal/mol and a stoichiometry N of 1. In test [3], this substance had a Kd 1 (site 1) of 3 µM, a Kd 2 (site 2) of 59 µM, an N1 (site 1) of 1 and an N2 (site 2) of 1. In test [3], this substance showed a dH1 (site 1) of -4.11 kcal/mol and a dH2 (site 2) of -0.526 kcal/mol. Also, in test [4], the stoichiometry N is 1. Moreover, in test [5], the dH was found to be 4.02 kcal/mol and the stoichiometry N is 1. In addition, the stoichiometry N in test [6] was 1. In [7], this substance returned a Kd 1 (first set of sites) of 1 µM, a Kd 2 (second set of sites) of 8 µM, an N1 (first set of sites) of 2 and an N2 (second set of sites) of 2. For the same substance, in [7], the dH1 (first set of sites) was -9.75 kcal/mol, the dH2 (second set of sites) stood at 0.932 kcal/mol and the stoichiometry N came out at 4. In [8], this substance showed a dH of 3.01 kcal/mol. The stoichiometry N in [9] is 1. The stoichiometry N in [10] stood at 2. In addition, in test [11], the Kd 1 (site 1) was determined as 4 µM, the Kd 2 (site 2) was 57 µM, the N1 (site 1) amounted to 1 and the N2 (site 2) came out at 1. In addition, in [11], the dH1 (site 1) is -9.8 kcal/mol and the dH2 (site 2) turned out to be 4.88 kcal/mol.

In [7], “RanQ69L (GTP-bound, GTPase deficient mutant) (from UniProt P62828 1-216) (natural protein)” yielded a Kd 1 (first set of sites) of 20 µM and a dH1 (first set of sites) of -9.39 kcal/mol.

The record behind these values is PMC2716403.
